For experiment [1], the target named is MCR-4 (Homo sapiens, UniProt P32245). The experiment can be described thus: Melanocortin receptor binding assay, competition with 125I-HP 467, HEK 293 cells expressing hMCR-4. The settings on record: for MC-4 IC50: TRG 2414 library, inhibition of binding of 125I-HP 467, HEK 293 cells expressing MCR-4; for IC50: read-out: MC-4 IC50.
Experiment [2] addresses MCR-1 (Homo sapiens, UniProt Q01726). The experiment can be described thus: Melanocortin receptor binding assay, competition with 125I-HP 467, HEK 293 cells expressing hMCR-1. Conditions: for MC-1 IC50: TRG 2414 library, inhibition of binding of 125I-HP 467, HEK 293 cells expressing MCR-1; for IC50: read-out: MC-1 IC50.
Where [3] appears, read: TRG 2408 and TRG 2409 libraries, inhibition of 125I-HP 467 binding.
Where [4] appears, read: competition with 125I-HP 467, HEK 293 cells expressing MCR-4.
The mark [5] stands for this setting: competition with 125I-HP 467, HEK 293 cells expressing MCR-1.

By UniProt entry, the sequences of proteins in these tests, tags left out.
UniProt P32245, whole entry: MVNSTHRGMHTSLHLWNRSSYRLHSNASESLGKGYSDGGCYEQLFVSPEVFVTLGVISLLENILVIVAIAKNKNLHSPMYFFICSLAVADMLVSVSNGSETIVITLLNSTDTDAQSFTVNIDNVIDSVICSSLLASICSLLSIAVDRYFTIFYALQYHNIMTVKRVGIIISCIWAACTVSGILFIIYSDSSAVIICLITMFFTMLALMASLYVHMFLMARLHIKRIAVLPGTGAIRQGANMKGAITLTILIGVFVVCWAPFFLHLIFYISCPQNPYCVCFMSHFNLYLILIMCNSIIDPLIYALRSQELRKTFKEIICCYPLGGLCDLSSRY
UniProt Q01726, whole entry: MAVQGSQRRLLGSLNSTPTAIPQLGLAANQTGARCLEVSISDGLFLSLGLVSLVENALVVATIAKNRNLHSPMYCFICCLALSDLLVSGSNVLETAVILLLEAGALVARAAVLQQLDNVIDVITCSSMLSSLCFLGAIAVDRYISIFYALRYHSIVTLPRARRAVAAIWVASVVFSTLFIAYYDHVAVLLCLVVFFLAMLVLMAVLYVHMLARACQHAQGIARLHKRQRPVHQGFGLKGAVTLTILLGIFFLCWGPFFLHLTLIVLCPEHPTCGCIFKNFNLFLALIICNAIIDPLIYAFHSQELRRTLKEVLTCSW

Like-named read-outs stand apart in the source and are kept apart here.

Consider `COc1ccccc1CCNC(=O)C1c2ccccc2C(=O)N(CCCC[C@H](NC(=O)Cc2ccccc2)C(N)=O)C1c1ccc(Cl)cc1Cl` (stereo partly drawn), for which the “MC-4 IC50” value in experiment [1] was “no fit”. The “MC-1 IC50” value in experiment [2] is “no fit”.

As usually defined, the IC50 is the concentration that inhibits the measured activity by half. Regarding `CN[C@H](CN)CCN1Cc2ccccc2C(CNCc2ccccc2O)C1c1ccc(-c2ccccc2)cc1` (stereo partly drawn), the IC50 came out at 10.8 µM in experiment [1] (setting [3]) and 6720 nM in experiment [2] (setting [3]).

As for `CCNc1ccc(C2C(CNCc3ccccc3O)c3ccccc3CN2CCC[C@@H](CN)NCCN)cc1` (stereo partly drawn), the values for the IC50 in experiment [1] (setting [3]) and in experiment [2] (setting [3]) were 16.4 µM and 1440 nM, respectively.

`COc1ccc(CCNC(=O)C2c3ccccc3C(=O)N(CCCC[C@H](NC(=O)c3ccccc3)C(N)=O)C2c2ccc(Oc3ccccc3)cc2)cc1` (stereo partly drawn): the “MC-4 IC50” value in experiment [1] is “no fit”. Besides, the “MC-1 IC50” value in experiment [2] is recorded as “no fit”.

As to `CNCCN[C@@H](CN)CCCCN1Cc2ccccc2C(CNCc2ccccc2O)C1c1ccc(-c2ccccc2)cc1` (stereo partly drawn), the results for the IC50 in experiment [1] (setting [3]) and in experiment [2] (setting [3]) were 19 µM and 1700 nM, respectively.

Consider `CN[C@H](CN)CCCCN1Cc2ccccc2C(CNCc2ccccc2O)C1c1ccc(NCCc2ccc(Cl)c(Cl)c2)cc1` (stereo partly drawn), for which the IC50 in experiment [1] (setting [4]) turned out to be 49.8 µM; in experiment [2] (setting [5]) it was 9820 nM.

As to `NC[C@H](N)CCCCN1Cc2ccccc2C(CNCc2ccccc2O)C1c1ccc(Cl)cc1Cl` (stereo partly drawn), the IC50 in experiment [1] (setting [3]) was found to be 3.66 µM; in experiment [2] (setting [3]) it was 1600 nM.

As to `CCNc1ccc(C2C(CNCc3ccccc3O)c3ccccc3CN2CC[C@@H](CN)NCCN)cc1` (stereo partly drawn), the results for the IC50 in experiment [1] (setting [3]) and in experiment [2] (setting [3]) were 23.3 µM and 2760 nM, respectively.

Take `COc1ccccc1CCNC(=O)C1c2ccccc2C(=O)N(CCCC[C@H](NC(=O)Cc2ccccc2)C(N)=O)C1c1cc(C(F)(F)F)cc(C(F)(F)F)c1` (stereo partly drawn): the “MC-4 IC50” value in experiment [1] was “no fit”. Also, the “MC-1 IC50” value in experiment [2] was “no fit”.

With `NCCN[C@H](CN)CCN1Cc2ccccc2C(CNCc2ccccc2O)C1c1ccc(-c2ccccc2)cc1` (stereo partly drawn), the figures for the IC50 in experiment [1] (setting [3]) and in experiment [2] (setting [3]) were 17.5 µM and 4610 nM, respectively.

Turning to `CNCCN[C@@H](CN)CCCCN1Cc2ccccc2C(CNCc2ccccc2O)C1c1ccc(Cl)cc1Cl` (stereo partly drawn), the results for the IC50 in experiment [1] (setting [3]) and in experiment [2] (setting [3]) were 6.05 µM and 1800 nM, respectively.

As to `CCCOc1ccc(C2C(C(=O)NCCc3cccc(Cl)c3)c3ccccc3C(=O)N2CCCC[C@H](NC(=O)Cc2ccccc2)C(N)=O)cc1` (stereo partly drawn), the “MC-4 IC50” value in experiment [1] was “no fit”. Also, the “MC-1 IC50” value in experiment [2] is “no fit”.

Regarding `NC(=O)[C@H](CCCCN1C(=O)c2ccccc2C(C(=O)NCCc2cccc(Cl)c2)C1c1cc(C(F)(F)F)cc(C(F)(F)F)c1)NC(=O)Cc1ccccc1` (stereo partly drawn), the “MC-4 IC50” value in experiment [1] is “no fit”. Moreover, the “MC-1 IC50” value in experiment [2] is given as “no fit”.

`CCCOc1ccc(C2C(C(=O)NCc3ccc(OC)cc3)c3ccccc3C(=O)N2CCCC[C@H](NC(=O)c2ccccc2)C(N)=O)cc1` (stereo partly drawn): the “MC-4 IC50” value in experiment [1] is on record as “no fit”. For the same compound, the “MC-1 IC50” value in experiment [2] was “no fit”.

For the compound `COc1ccccc1CCNC(=O)C1c2ccccc2C(=O)N(CCCC[C@H](NC(=O)Cc2ccccc2)C(N)=O)C1c1ccc(Oc2ccccc2)cc1` (stereo partly drawn), the “MC-4 IC50” value in experiment [1] is on record as “no fit”. Besides, in experiment [2], the “MC-1 IC50” value is given as “no fit”.

In the case of `NC[C@@H](N)CCCCN1Cc2ccccc2C(CNCc2ccccc2O)C1c1ccc(-c2ccccc2)cc1` (stereo partly drawn), the values for the IC50 in experiment [1] (setting [3]) and in experiment [2] (setting [3]) were 15.1 µM and 2340 nM, respectively.

In the case of `CN[C@H](CN)CCCCN1Cc2ccccc2C(CNCc2ccccc2O)C1c1ccc(NCC(C)C)cc1` (stereo partly drawn), the IC50 is 15.8 µM in experiment [1] (setting [4]) and 680 nM in experiment [2] (setting [5]).

As to `CCNc1ccc(C2C(CNCCc3ccccc3)c3ccccc3CN2CCCC[C@@H](CN)NCc2ccc(Cl)cc2)cc1` (stereo partly drawn), the IC50 in experiment [1] (setting [4]) was 1.04 µM; in experiment [2] (setting [5]), 160 nM.

As for `CCCOc1ccc(C2C(C(=O)NCCc3ccccc3OC)c3ccccc3C(=O)N2CCCC[C@H](NC(=O)c2ccccc2)C(N)=O)cc1` (stereo partly drawn), in experiment [1], the “MC-4 IC50” value was “no fit”. In experiment [2], the “MC-1 IC50” value is on record as “no fit”.

As for `NC[C@H](CCCCN1Cc2ccccc2C(CNCc2ccccc2O)C1c1ccc(Cl)cc1Cl)NCCc1ccccc1` (stereo partly drawn), the values for the half-inhibitory concentration (IC50) in experiment [1] (setting [3]) and in experiment [2] (setting [3]) were 10.9 µM and 4340 nM, respectively.

Consider `COc1ccccc1CCNC(=O)C1c2ccccc2C(=O)N(CCCC[C@H](N)C(N)=O)C1c1cc(C(F)(F)F)cc(C(F)(F)F)c1` (stereo partly drawn), for which the “MC-4 IC50” value in experiment [1] is listed as “no fit”. Besides, the “MC-1 IC50” value in experiment [2] is “no fit”.

(Values after patent publication US6608082B1, “Treatment of erectile dysfunction using isoquinoline compound melanocortin receptor ligands” (Lion Bioscience AG, priority 1998, dated 2003).)
